US7176320B2, “Benzimidazole derivative” (Teijin Limited, priority 2000, dated 2007)

Assay: In vitro metabolism test using liver microsomes (Ms)
Settings: liver microsomes 1.0 mg/mL, substrate 5.0 μM, NADPH 1.0 mM, 37° C., pH 7.4

SMILES	MR (metabolic rate at its maximum) [nmol/min./mg protein]
Cc1cccc2scc(Cn3c(SCCCC(=O)O)nc4ccccc43)c12	0.048
Cc1cc2nc(SCCCC(=O)O)n(Cc3csc4ccc(Cl)cc34)c2cc1C	0.102
Cc1cc2nc(SCCCC(=O)O)n(Cc3cn(C)c4cccc(Cl)c34)c2cc1C	0.088
Cc1ccc2c(c1)c(Cn1c(SCCCC(=O)O)nc3ccccc31)cn2C	0.329
Cc1cccc2c1c(Cn1c(SCCCC(=O)O)nc3cc(Cl)c(Cl)cc31)cn2C	0.159
Cn1cc(Cn2c(SCCCC(=O)O)nc3ccccc32)c2c(Cl)cccc21	0.129
